The results in this text go back to ChEMBL document CHEMBL4828765, “Design and Development of a Chemical Probe for Pseudokinase Ca2+/calmodulin-Dependent Ser/Thr Kinase” (J Med Chem, 2021).

Sequences of proteins named here, by UniProt entry; tags and fusion partners are left off. A change or cut given only in a name is not applied to a line headed by its entry.
UniProt P08581: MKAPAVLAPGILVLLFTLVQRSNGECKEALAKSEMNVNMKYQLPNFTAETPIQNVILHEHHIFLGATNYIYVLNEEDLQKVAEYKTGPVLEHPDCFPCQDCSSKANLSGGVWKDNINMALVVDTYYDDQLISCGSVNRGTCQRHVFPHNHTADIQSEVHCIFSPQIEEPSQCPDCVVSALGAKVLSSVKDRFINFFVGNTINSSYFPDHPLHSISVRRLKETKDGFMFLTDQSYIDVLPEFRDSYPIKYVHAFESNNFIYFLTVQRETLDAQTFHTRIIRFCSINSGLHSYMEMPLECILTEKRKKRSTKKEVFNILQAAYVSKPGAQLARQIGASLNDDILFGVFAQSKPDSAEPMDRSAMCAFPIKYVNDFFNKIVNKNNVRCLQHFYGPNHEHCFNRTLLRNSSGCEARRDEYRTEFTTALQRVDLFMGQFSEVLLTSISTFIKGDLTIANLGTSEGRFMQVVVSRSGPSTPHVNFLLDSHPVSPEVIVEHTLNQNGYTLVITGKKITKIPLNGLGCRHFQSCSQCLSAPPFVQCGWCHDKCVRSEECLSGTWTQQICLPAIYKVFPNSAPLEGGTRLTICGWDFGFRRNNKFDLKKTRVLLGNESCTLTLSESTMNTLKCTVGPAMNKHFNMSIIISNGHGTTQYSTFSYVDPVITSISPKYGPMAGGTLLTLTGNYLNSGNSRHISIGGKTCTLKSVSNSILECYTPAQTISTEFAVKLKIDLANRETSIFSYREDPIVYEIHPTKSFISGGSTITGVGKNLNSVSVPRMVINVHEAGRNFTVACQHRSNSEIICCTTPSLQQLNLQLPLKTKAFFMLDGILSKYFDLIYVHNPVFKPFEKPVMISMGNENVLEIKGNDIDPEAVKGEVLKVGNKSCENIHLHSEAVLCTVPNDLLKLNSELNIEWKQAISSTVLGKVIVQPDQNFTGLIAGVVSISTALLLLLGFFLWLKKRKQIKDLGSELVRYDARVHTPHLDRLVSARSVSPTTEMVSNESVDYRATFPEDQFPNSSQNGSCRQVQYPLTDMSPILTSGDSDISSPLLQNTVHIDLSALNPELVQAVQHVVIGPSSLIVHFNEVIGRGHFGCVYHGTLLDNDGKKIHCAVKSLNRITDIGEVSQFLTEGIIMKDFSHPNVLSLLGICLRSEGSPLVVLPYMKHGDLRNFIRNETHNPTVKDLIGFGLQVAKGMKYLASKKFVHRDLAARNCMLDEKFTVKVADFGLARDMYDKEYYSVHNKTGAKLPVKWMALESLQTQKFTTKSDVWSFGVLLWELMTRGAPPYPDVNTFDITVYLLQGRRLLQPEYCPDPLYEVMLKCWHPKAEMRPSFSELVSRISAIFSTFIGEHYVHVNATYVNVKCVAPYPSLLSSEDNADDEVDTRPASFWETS

Molecules are shown by their SMILES.

The assay has as its target Hepatocyte growth factor receptor (Homo sapiens, UniProt P08581). As to the kind of experiment: Binding affinity to human MET by KINOMEscan scanMAX assay.

For `O=C(NCCCN1CCOC1=O)c1cnc(NCc2cc(Cl)ccc2Cl)nc1NC1CCCC1`, the Kd amounted to 800 nM.
